The entries are a selection whose mix differs from that of the whole data set. Calls of active or inactive are those of the source.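 Rule for the calls: active = compounds giving at least 50% protection of heart cells from peroxide-induced death in the single-dose screen, raw or plate-pattern-corrected value; inactive = the rest.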
Experiment: cardioprotection against H2O2-induced cell death, primary screen, uHTS, H9c2 cells, ATPLite luminescence (AID 588492);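 note: 0% = DMSO wells with peroxide and 100% = DMSO wells without peroxide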
Conditions: H9c2 cardiomyocytes, H2O2 injury protection, 2 h, at 20 µM, active compounds read high

Structure (SMILES) | protection from H2O2 cell death
CCCN1CCC(Nc2cc(OC)cc(OC)c2)CC1 | inactive: -7%
O=c1[nH]c2ccccc2n1C1CCN(C(c2ccccc2)c2nnnn2C2CCCC2)CC1 (configuration not stated) | inactive: 8.7%
Cc1cc(N(CCCl)CCCl)ccc1C=O | inactive: -4.1%
c1ccc(CN2CCC(Nc3ccccc3)CC2)cc1 | inactive: 1.1%
CN(C)C1(CNC(=O)c2cccc(C#N)c2)CCCCC1 | inactive: 2.8%
CC(C)(C)n1nnnc1C(c1cccc2ccccc12)N1CCC(n2c(=O)[nH]c3ccccc32)CC1 (configuration not stated) | inactive: -11.8%
CC(C)(C)OC(=O)N1CCC(N(C(=O)c2ccccc2)c2ccc(Cl)cc2)CC1 | inactive: 2.5%
N#Cc1ccc(C(=O)NCC2(N3CCCCC3)CCCCC2)cc1 | inactive: -1.9%
N/C(=N\O)c1c(N)no[n+]1[O-] | inactive: 2.2%
COc1cccc(C(c2nnnn2C(C)(C)C)N2CCC(n3c(=O)[nH]c4ccccc43)CC2)c1OC (configuration not stated) | inactive: 14.1%
CCOC(=O)N1CCC(Nc2ccc(C)cc2)CC1 | inactive: 9.3%
CCCCn1nnnc1C(c1cccc(OC)c1OC)N1CCC(n2c(=O)[nH]c3ccccc32)CC1 (configuration not stated) | inactive: 13.3%
O=c1[nH]c2ccccc2n1C1CCN(C(c2cccs2)c2nnnn2C2CCCC2)CC1 (configuration not stated) | inactive: 27.6%
O=C(OC1CN2CCC1CC2)C1c2ccccc2C=Cc2ccccc21 (configuration not stated) | inactive: 7.5%
O=C(NCC1(N2CCOCC2)CCCCC1)c1cc(Br)ccc1Cl | inactive: 1.1%
COc1cc(C(=O)NCC2(N3CCOCC3)CCCCC2)cc(OC)c1C | inactive: 5.8%
CCCCn1nnnc1C(c1ccccc1)N1CCC(n2c(=O)[nH]c3ccccc32)CC1 (configuration not stated) | inactive: 19.3%
O=c1[nH]c2ccccc2n1C1CCN(C(c2ccnc3ccccc23)c2nnnn2C2CCCC2)CC1 (configuration not stated) | inactive: 7.4%
COc1ccc(C(=O)NCC2(N3CCOCC3)CCCCC2)cc1OC | inactive: 1.8%
O=c1[nH]c2ccccc2n1C1CCN(C(c2cccs2)c2nnnn2C2CCCCC2)CC1 (configuration not stated) | inactive: 22.9%
CCC(CO)(C(=O)OC1CN2CCC1CC2)c1ccccc1 (configuration not stated) | inactive: 4.1%

Structure (SMILES) | protection from H2O2 cell death
COc1cccc(C(=O)N(c2cc(C)cc(C)c2)C2CCN(C(=O)OC(C)(C)C)CC2)c1 | inactive: -3.1%
COc1cc(OC)cc(C(=O)NCC2(N3CCOCC3)CCCCC2)c1 | inactive: -3.6%
COc1cccc(C(c2nnnn2C2CCCC2)N2CCC(n3c(=O)[nH]c4ccccc43)CC2)c1OC (configuration not stated) | inactive: 4.5%
CN1CCC(Nc2ccc(Cl)cc2)CC1 | inactive: -4.1%
CN1CCC(Nc2ccc(F)c(Cl)c2)CC1 | inactive: 6.1%
CCOc1ncccc1C(=O)NCC1(N2CCOCC2)CCCCC1 | inactive: 2.1%
CCCOc1ccc(C(=O)NCC2(N(C)C)CCCCC2)cc1 | inactive: 1.6%
O=c1[nH]c2ccccc2n1C1CCN(C(c2cc3ccccc3o2)c2nnnn2C2CCCC2)CC1 (configuration not stated) | inactive: 6.4%
O=C(O)C1(Nc2ccccc2)CCN(Cc2ccccc2)CC1 | inactive: 12.4%
CC(C)(C)OC(=O)N1CCC(Nc2ccccc2)CC1 | inactive: -2.8%
CC(C)(C)n1nnnc1C(c1ccnc2ccccc12)N1CCC(n2c(=O)[nH]c3ccccc32)CC1 (configuration not stated) | inactive: 7.3%
COc1ccc(C(c2nnnn2C2CCCCC2)N2CCC(n3c(=O)[nH]c4ccccc43)CC2)cc1 (configuration not stated) | inactive: 15.8%
CCN1CCC(Nc2cccc(F)c2)CC1 | inactive: 12.5%
Cc1ccccc1NC1(C#N)CCN(Cc2ccccc2)CC1 | inactive: -6.4%
Cn1c(=O)[nH]cc(N(CCCl)CCCl)c1=O | inactive: -1.3%
CN(C)c1ccc(C(=O)NCC2(N3CCCCC3)CCCCC2)cc1 | inactive: 1.9%
O=C(NCC1(N2CCCCC2)CCCCC1)c1ccco1 | inactive: 7.3%
O=c1[nH]c2ccccc2n1C1CCN(C(c2ccnc3ccccc23)c2nnnn2C2CCCCC2)CC1 (configuration not stated) | inactive: 13.4%
COc1cc(OC)cc(C(=O)NCC2(N3CCCCC3)CCCCC2)c1 | inactive: 2.8%
CCC(c1nnnn1C1CCCCC1)N1CCC(n2c(=O)[nH]c3ccccc32)CC1 (configuration not stated) | inactive: 10.4%
CC(=O)N(c1ccccc1)C1CCNCC1 | inactive: 3.9%

Structure (SMILES) | protection from H2O2 cell death
COc1cccc(C(c2nnnn2C2CCCCC2)N2CCC(n3c(=O)[nH]c4ccccc43)CC2)c1OC (configuration not stated) | inactive: 17.1%
Cc1ccc(NC2(C#N)CCN(Cc3ccccc3)CC2)cc1 | inactive: 1.9%
Fc1ccccc1NC1CCN(Cc2ccccc2)CC1 | inactive: 1.9%
Cc1ccc(C(=O)NCC2(N3CCCCC3)CCCCC2)o1 | inactive: 0.5%
O=c1[nH]c2ccccc2n1C1CCN(C(c2ccccc2)c2nnnn2C2CCCCC2)CC1 (configuration not stated) | inactive: 19.1%
O=c1[nH]c2ccccc2n1C1CCN(C(c2cccc3ccccc23)c2nnnn2C2CCCC2)CC1 (configuration not stated) | inactive: -8.8%
COc1cc(C(=O)NCC2(N(C)C)CCCCC2)ccc1OC(F)F | inactive: 3.2%
CCOC(=O)N1CCC(Nc2cccc(C)c2)CC1 | inactive: -3.9%
CCOc1ccc(C)cc1CN(CCCl)CCCl | inactive: 2.4%
O=C1CCN(Cc2ccccc2)CC1 | inactive: 1.3%
CC(C)(C)n1nnnc1C(c1ccccc1)N1CCC(n2c(=O)[nH]c3ccccc32)CC1 (configuration not stated) | inactive: 17.1%
CCOC(=O)N1CCC(Nc2ccc(F)cc2)CC1 | inactive: 3.5%
COc1ccc(NC2CCN(CCc3ccccc3)CC2)c(OC)c1 | inactive: -3.9%
O=C(NCC1(N2CCCCC2)CCCCC1)c1ccc(F)cc1 | inactive: -1.2%
CCCCOc1ccc(C(=O)NCC2(N3CCOCC3)CCCCC2)cc1 | inactive: -5%
CCCCn1nnnc1C(c1cc2ccccc2o1)N1CCC(n2c(=O)[nH]c3ccccc32)CC1 (configuration not stated) | inactive: 12.3%
O=P1(N(CCCl)CCCl)SCCCS1 | inactive: 0.6%
O=C(NCC1(N2CCOCC2)CCCCC1)c1cc2ccccc2o1 | inactive: -4.7%
Cc1cc(C)cc(N(C(=O)c2ccccc2)C2CCN(C(=O)OC(C)(C)C)CC2)c1 | inactive: 2%
O=c1[nH]c2ccccc2n1C1CCN(C(c2ccccc2OC(F)(F)F)c2nnnn2C2CCCCC2)CC1 (configuration not stated) | inactive: -5.6%

Reference: PubChem BioAssay AID588492 (Sanford-Burnham Center for Chemical Genomics, 2011)
